These are literature values, as cited in US8658604B2, “Template-fixed beta-hairpin peptidomimetics with protease inhibitory activity” (Polyphor Ltd, priority 2005, dated 2014).

For the data set, the system named is elastase. As to conditions: cited from earlier work.

A word on the Ki: it is the equilibrium dissociation constant of an inhibitor or competing ligand from its target. For `CC[C@H](C)[C@@H]1NC(=O)[C@@H]2CCCN2C(=O)[C@@H]2CCCN2C(=O)[C@H]([C@@H](C)CC)NC(=O)[C@H](CO)NC(=O)[C@H](CCCCN)NC(=O)[C@H]([C@@H](C)O)NC(=O)[C@@H]2CSSC[C@H](NC1=O)C(=O)N[C@@H](Cc1ccccc1)C(=O)N1CCC[C@H]1C(=O)N[C@@H](CC(=O)O)C(=O)NCC(=O)N[C@@H](CCCNC(=N)N)C(=O)N2`, the Ki was 105 µM.
